This is an account of results in patent US11820749B2, “Centrally active and orally bioavailable uncharged bisoxime antidotes for organophosphate poisoning and methods for making and using them” (dated 2023).

The structures appear in SMILES notation.

This experiment deals with sarin-, cyclosarin-, VX- and paraoxon-inhibited human AChE (Homo sapiens, UniProt P22303). The experiment in a line: in vitro reactivation kinetics of four OP-hAChE conjugates. Conditions: for order of potency (printed as in vivo potency): rank order from the initial in vitro analysis; for in vitro reactivation efficiency compared to RS194B: all four OP conjugates, 0.1M Phosphate buffer pH 7.4, 37° C.

Turning to `O=C(/C=N/O)NCCCN1CCN(CCNC(=O)/C=N/O)CC1`, the “order of potency (printed as in vivo potency)” value (“order of potency” for short) is given as “greater than LG-747”.
`O=C(/C=N/O)NCCN1CCCN(CCNC(=O)/C=N/O)CC1`: the “order of potency” value was “greater than RS194B”.
On to `O=C(/C=N/O)NCCN1CCN(CCNC(=O)/C=N/O)CC1`, for which the “in vitro reactivation efficiency compared to RS194B” value is “generally similar to RS194B or slower” and the “order of potency” value is reported as “LG-747 greater than LG-700”.
In the same order, the values of `O=C(/C=N/O)NCCC1CCN(CCNC(=O)/C=N/O)CC1` are “most efficient reactivators” and “greater than LG-804”.
Consider `O=C(/C=N/O)NCCCN1CCCN(CCCNC(=O)/C=N/O)CC1`, for which the “in vitro reactivation efficiency compared to RS194B” value is “followed by homopiperazine LG-804” and the “order of potency” value was “greater than LG-703”.
